## Curated experimental data: properties

Melting points are in °C.
Boiling points are in °C, nominally at 760 mmHg.
The octanol-water partition coefficient is given as log10; larger values mean a more lipophilic compound.
Solubility in water is on a log10 molar scale (set defined at 25 °C).
Vapor pressures (log10 mmHg) refer to near room temperature, 15 to 30 °C; higher is more volatile.
The Henry's law constant is on a log10 scale in atm·m3/mol (set defined at 25 °C); higher favours air over water.
fu is the fraction unbound in human plasma, from 0 to 1.
Intrinsic clearance (human, µL/min per 10^6 hepatocytes): higher is faster turnover, and 0 stands for none detected.
"n/a" marks a cell with nothing listed here.

SMILES,name,MP (°C),boiling point (°C),log Kow,water solubility (log10 mol/L),log vapor pressure (log10 mmHg),log Henry constant (log10 atm·m3/mol),fu,hepatic Clint (µL/min/10^6 cells)
CCCCCCCCC=CCCCCCCCC1=NC(CC)(CO)CO1 (configuration not stated),n/a,n/a,n/a,3.42,-5.148,-5.029,n/a,n/a,n/a
CC(C)NCC(O)COc1ccc(CCOCC2CC2)cc1 (configuration not stated),Betaxolol,n/a,n/a,n/a,-4.014,n/a,n/a,n/a,2.535
O=S(=O)(F)C(F)(F)C(F)(F)OC(F)=C(F)F,Perfluoro(3-oxapent-4-ene)sulfonyl fluoride,n/a,75.6,n/a,n/a,2.003,n/a,n/a,n/a
CN(C)c1ccc(C(=C2C=CC(=[N+](C)C)C=C2)c2c(O)c(S(=O)(=O)[O-])cc3cc(S(=O)(=O)[O-])ccc23)cc1.[Na+],Acid green 50,323.1,n/a,0.595,n/a,n/a,n/a,n/a,n/a
CCCCC1OC(C)CC(C)(C)O1 (configuration not stated),"2-Butyl-4,4,6-trimethyl-1,3-dioxane",n/a,n/a,3.94,-2.453,-0.24,n/a,n/a,n/a
CC(C)c1ccc(S(=O)(=O)[O-])cc1.[NH4+],Ammonium 4-isopropylbenzenesulfonate,315,n/a,-1.679,n/a,n/a,n/a,n/a,n/a
CC(=O)OCCN(CCC#N)c1ccc(N=Nc2ccc([N+](=O)[O-])cc2Cl)cc1,n/a,n/a,n/a,4.03,-6.646,n/a,n/a,n/a,n/a
CC(=O)Nc1ncc([N+](=O)[O-])s1,Nithiamide,n/a,n/a,n/a,-2.07,-5.733,n/a,n/a,n/a
C=CC(=O)OC(C)CCCCCC (configuration not stated),2-Octyl acrylate,-78,n/a,4.68,-4.14,n/a,n/a,n/a,n/a
O=C1CCCCCN1SSN1CCCCCC1=O,"1,1'-Disulfanediyldiazepan-2-one",136.1,n/a,2.25,-2.314,n/a,n/a,n/a,n/a
CCCCCCCCCCCCSCCC(=O)OCC(COC(=O)CCSCCCCCCCCCCCC)(COC(=O)CCSCCCCCCCCCCCC)COC(=O)CCSCCCCCCCCCCCC,n/a,50,n/a,n/a,-7.667,-9.811,n/a,n/a,n/a
CC1(C)COC2(CC[C@H]3[C@@H]4CCC5=CC6(CC[C@@H]5[C@H]4C(=O)C[C@@]32C)SCCS6)OC1,n/a,156.3,n/a,5.2,-7.245,n/a,n/a,n/a,n/a
CC(C)(C)OC(=O)C(C)(C)O/N=C(\C(=O)Sc1nc2ccccc2s1)c1csc(N)n1,n/a,120,n/a,4.14,n/a,n/a,n/a,n/a,n/a
CCCCC(CC)CN(CC(CC)CCCC)CC(CC)CCCC (configuration not stated),"1-Hexanamine, 2-ethyl-N,N-bis(2-ethylhexyl)-",-94,n/a,8.7,-8.248,-5.139,n/a,n/a,n/a
CCC(Cc1ccc(C)cc1)(C(=O)c1ccc(N2CCOCC2)cc1)N(C)C (configuration not stated),n/a,81.08,n/a,n/a,-5.098,n/a,n/a,n/a,n/a
CCO[Si](CCCNC=O)(OCC)OCC,N-[3-(Triethoxysilyl)propyl]formamide,-74,n/a,1.2,n/a,-4.238,n/a,n/a,n/a
CNCCCC1c2ccccc2C=Cc2ccccc21,Protriptyline,170,n/a,4.7,-6.057,n/a,n/a,0.08,n/a
C1CCN([P+](N2CCCCC2)(N2CCCCC2)N2CCCCC2)CC1.[Cl-],Tetrakis(1-piperidyl)phosphonium chloride,165,n/a,n/a,-2.782,n/a,n/a,n/a,n/a
CCCCCCCCCCCCCCCCCC(=O)OC(CCCCCC)CCCCCCCCCCC(=O)OCC(CCCCCCCC)CCCCCCCCCC (configuration not stated),n/a,-10,n/a,n/a,-8.785,n/a,n/a,n/a,n/a
Cc1cc(C)c(Cl)c(O)c1,"Phenol, 2-chloro-3,5-dimethyl-",116,n/a,2.8,-2.718,n/a,n/a,n/a,n/a
Cc1ccc(-c2ccccc2C#N)cc1,4'-Methylbiphenyl-2-carbonitrile,n/a,n/a,3.5,n/a,-3.979,n/a,n/a,n/a
Cc1ccc(O)c(/N=N/c2ccccc2[N+](=O)[O-])c1,"Phenol, 4-methyl-2-[(2-nitrophenyl)azo]-",117,n/a,4,-5.748,n/a,n/a,n/a,n/a
CC(C)(C)N(Sc1nc2ccccc2s1)Sc1nc2ccccc2s1,n/a,137.5,n/a,6.7,-8.363,-5.401,n/a,n/a,n/a
COC(=O)c1ccc(C(=O)OC)c(C(=O)OC)c1,"Trimethyl benzene-1,2,4-tricarboxylate",n/a,341.2,1.96,-2.356,-4.75,n/a,n/a,n/a
O=C(O)CCCc1c[nH]c2ccccc12,Indole-3-butyric acid,n/a,n/a,n/a,n/a,-6.801,-9.802,n/a,n/a
CC(=O)OCC(C)(C)COC(C)=O,Neopentyl glycol diacetate,-10,n/a,1.9,n/a,-1.259,n/a,n/a,n/a
NS(=O)(=O)c1cc(C(=O)Cl)ccc1Cl,4-Chloro-3-sulfamoylbenzoyl chloride,167,n/a,n/a,n/a,-8.782,n/a,n/a,n/a
CNCC(O)c1ccc(OC(=O)C(C)(C)C)c(OC(=O)C(C)(C)C)c1 (configuration not stated),Dipivefrin,n/a,n/a,1.7,-3.781,n/a,n/a,n/a,n/a
C=COCCCCCCCCCCCCCCCCCC,"Octadecane, 1-(ethenyloxy)-",n/a,349.2,n/a,n/a,-5.305,n/a,n/a,n/a
COC(C)(C)CCO,3-Methoxy-3-methylbutan-1-ol,n/a,n/a,0.18,n/a,-0.222,n/a,n/a,n/a
COC(=O)c1ccc(C(C)(C)C)cc1,"Benzoic acid, 4-(1,1-dimethylethyl)-, methyl ester",n/a,n/a,4.3,-3.74,n/a,n/a,n/a,n/a
CC[Si](ON=C(C)C)(ON=C(C)C)ON=C(C)C,n/a,-3.95,301.8,0.2,n/a,-3.624,n/a,n/a,n/a

The first 3 entries again:

{"smiles": "CCCCCCCCC=CCCCCCCCC1=NC(CC)(CO)CO1", "stereo": "configuration not stated", "log Kow": "3.42", "water solubility (log10 mol/L)": "-5.148", "log vapor pressure (log10 mmHg)": "-5.029"}
{"smiles": "CC(C)NCC(O)COc1ccc(CCOCC2CC2)cc1", "stereo": "configuration not stated", "name": "Betaxolol", "water solubility (log10 mol/L)": "-4.014", "hepatic Clint (µL/min/10^6 cells)": "2.535"}
{"smiles": "O=S(=O)(F)C(F)(F)C(F)(F)OC(F)=C(F)F", "name": "Perfluoro(3-oxapent-4-ene)sulfonyl fluoride", "boiling point (°C)": "75.6", "log vapor pressure (log10 mmHg)": "2.003"}

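The numbers are reported measurements, compiled and curated for the OPERA QSAR suite. The files give a single number for a compound and property, which may rest on several reports. How each value was measured is not recorded, so precision varies. The measured form (salt, isomer or mixture) is not always the one drawn. Unmarked limits or estimates from the upstream databases cannot be ruled out.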

Values as listed in the OPERA 2.9 repository of K. Mansouri.